Experimental data: paper PMC4773911 (Journal of the American Chemical Society, 2015)

Biological target: T1, DAGL-α (Homo sapiens, UniProt Q9Y4D2)
T1 sequence (Q9Y4D2 1-1042): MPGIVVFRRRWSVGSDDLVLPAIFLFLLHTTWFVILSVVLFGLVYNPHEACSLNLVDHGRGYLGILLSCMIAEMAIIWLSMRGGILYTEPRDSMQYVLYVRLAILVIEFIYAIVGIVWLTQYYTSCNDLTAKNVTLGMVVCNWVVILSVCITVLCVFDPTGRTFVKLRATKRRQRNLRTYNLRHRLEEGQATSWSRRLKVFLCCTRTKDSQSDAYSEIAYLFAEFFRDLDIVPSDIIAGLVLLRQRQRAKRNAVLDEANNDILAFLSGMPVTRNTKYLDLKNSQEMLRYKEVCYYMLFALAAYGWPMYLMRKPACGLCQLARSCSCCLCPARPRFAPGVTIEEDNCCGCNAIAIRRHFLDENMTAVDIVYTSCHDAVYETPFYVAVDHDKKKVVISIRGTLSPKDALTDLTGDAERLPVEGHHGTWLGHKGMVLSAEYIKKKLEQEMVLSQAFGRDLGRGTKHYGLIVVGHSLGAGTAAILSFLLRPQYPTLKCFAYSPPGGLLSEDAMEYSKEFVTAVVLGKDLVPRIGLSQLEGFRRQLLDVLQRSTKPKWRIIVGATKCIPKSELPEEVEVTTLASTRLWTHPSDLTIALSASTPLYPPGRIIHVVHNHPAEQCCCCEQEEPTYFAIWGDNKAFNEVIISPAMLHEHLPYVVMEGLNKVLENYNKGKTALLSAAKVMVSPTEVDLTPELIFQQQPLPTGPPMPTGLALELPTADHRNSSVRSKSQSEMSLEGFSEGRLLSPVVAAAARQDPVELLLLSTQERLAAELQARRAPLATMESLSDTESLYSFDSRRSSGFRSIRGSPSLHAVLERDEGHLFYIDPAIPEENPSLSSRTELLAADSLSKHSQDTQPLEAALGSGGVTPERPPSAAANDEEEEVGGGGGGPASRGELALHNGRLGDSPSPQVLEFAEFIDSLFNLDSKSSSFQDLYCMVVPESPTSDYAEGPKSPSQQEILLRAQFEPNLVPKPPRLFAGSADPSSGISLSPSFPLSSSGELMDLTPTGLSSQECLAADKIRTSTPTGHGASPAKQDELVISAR
Assay: real-time, fluorescence-based
Settings: substrate 1-stearoyl-2-arachidonoyl-sn-glycerol; n=4

For `Cc1ccc(-c2cnc3nc(C(=O)CCCCCc4ccccc4)oc3c2)cc1` [LEI105], the “pIC50 of DAGL-α inhibition, natural substrate assay” value was 7.9 ± 0.08.
